Data reported in patent publication US9138407B2, “Inhalatory pharmaceutical compositions in form of dry powders, solutions or suspensions obtained from the same and process for their preparation” (Eratech S.R.L., priority 2005, dated 2015).

Legend:
[1] = Dimensional distribution of nebulized droplets by laser light scattering (Sympatec Helos); type: physicochemical; details: after first minute of continuous delivery
Method: (§1) has improved in relation to the droplet diameter of the nebulized product and/or to the dose delivered in a standard delivery time for a patient, correspondent to 5 minutes, we have dispersed in 2 ml of distilled water 40 mg of powder, produced according to example 4 later described, correspondent to a 240 μg dose of salbutamol, comparing it with an equivalent dose of salbutamol sulphate dissolved in 2 ml of distilled water.
The same formulation has been investigated measuring after the first minute of continuous delivery the dimensional distribution of the delivered droplets, by putting the device in front of a laser ray of a light scattering particle size analyzer, Sympatec Helos, provided of a R1 measuring lens for the range 0.1-35 μm.

[2] = Dose delivered from nebulizers in 5 minutes without forced inhalation; type: physicochemical; details: 240 μg salbutamol dose in 2 ml distilled water
Method: M, A: nebulizer provided with a mesh or a piezoelectric device
C: pneumatic nebulizer (jet nebulizer)
as §1
The 2 ml of solution of the two compositions taken in consideration have been loaded in the 4 nebulizers and these have been activated for 5 minutes to measure the delivered amount without forced inhalation.

[3] = nebulizer A (mesh or piezoelectric)

Substance: salbutamol sulphate
- X50 of delivered droplets [1, 3]: 8.21 μm
- X50 of delivered droplets ([1]; nebulizer C (pneumatic, jet)): 8.67 μm
- X50 of delivered droplets ([1]; nebulizer N (ultrasonic)): 6.52 μm
- Delivered dose [2, 3]: 26.1%
- Delivered dose ([2]; nebulizer C (pneumatic, jet)): 56.7%
- Delivered dose ([2]; nebulizer M (mesh or piezoelectric)): 14.1%
- Delivered dose ([2]; nebulizer N (ultrasonic)): 58.5%
